Source: patent publication EP4834897A1, “COMPOUNDS WITH TWO AZAHETEROCYCLES SUBSTITUTED ISOINDOLINONE SKELETON AND USES THEREOF” (dated 2026)

Sequences of proteins named here, by UniProt entry; tags and fusion partners are left off.
UniProt Q96SW2, whole entry: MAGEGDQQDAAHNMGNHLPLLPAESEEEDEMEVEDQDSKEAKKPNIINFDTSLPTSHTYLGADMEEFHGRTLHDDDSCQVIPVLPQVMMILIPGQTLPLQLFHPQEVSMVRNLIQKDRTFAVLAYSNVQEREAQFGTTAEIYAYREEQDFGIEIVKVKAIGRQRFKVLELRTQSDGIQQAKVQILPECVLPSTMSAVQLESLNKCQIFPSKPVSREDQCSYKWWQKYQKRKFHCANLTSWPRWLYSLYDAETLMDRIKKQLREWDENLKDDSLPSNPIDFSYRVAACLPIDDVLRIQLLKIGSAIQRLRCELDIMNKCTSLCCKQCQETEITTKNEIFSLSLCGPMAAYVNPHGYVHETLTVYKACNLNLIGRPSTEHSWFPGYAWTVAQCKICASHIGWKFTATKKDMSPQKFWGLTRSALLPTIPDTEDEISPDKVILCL
UniProt P48729, whole entry: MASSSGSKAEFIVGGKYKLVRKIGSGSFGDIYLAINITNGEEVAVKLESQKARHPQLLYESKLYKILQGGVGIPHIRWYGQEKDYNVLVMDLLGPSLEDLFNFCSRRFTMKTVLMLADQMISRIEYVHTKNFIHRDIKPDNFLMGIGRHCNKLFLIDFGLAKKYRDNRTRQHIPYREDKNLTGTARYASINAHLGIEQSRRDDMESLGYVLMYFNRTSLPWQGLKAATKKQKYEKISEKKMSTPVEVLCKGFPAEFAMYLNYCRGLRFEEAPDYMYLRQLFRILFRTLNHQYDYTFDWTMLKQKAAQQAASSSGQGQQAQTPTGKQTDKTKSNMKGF
UniProt P15170, whole entry: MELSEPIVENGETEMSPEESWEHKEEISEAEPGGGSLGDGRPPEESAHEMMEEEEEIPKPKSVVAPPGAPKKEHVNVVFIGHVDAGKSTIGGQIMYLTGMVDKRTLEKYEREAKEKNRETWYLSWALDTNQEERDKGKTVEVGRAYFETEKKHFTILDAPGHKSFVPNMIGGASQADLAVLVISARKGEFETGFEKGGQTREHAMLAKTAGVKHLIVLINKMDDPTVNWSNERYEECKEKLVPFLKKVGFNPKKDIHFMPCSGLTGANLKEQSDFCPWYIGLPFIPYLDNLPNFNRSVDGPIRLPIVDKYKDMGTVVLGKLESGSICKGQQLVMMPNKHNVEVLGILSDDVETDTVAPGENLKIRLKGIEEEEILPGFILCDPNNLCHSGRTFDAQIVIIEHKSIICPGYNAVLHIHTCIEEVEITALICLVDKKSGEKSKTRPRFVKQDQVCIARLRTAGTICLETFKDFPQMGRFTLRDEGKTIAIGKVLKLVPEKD
UniProt Q13422, whole entry: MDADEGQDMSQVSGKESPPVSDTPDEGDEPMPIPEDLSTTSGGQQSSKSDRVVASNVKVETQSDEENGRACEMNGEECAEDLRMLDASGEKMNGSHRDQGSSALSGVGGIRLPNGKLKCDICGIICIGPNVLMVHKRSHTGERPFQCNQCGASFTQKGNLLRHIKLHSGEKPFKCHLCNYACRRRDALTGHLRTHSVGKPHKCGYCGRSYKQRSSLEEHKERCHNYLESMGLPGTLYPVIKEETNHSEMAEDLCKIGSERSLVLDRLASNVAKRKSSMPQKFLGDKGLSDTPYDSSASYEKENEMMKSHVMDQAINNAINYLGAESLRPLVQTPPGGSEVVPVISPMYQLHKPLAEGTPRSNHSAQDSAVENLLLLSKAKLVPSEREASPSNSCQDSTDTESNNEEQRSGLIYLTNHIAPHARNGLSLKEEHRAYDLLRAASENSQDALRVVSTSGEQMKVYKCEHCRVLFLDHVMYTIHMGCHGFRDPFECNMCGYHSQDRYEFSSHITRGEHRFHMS
UniProt Q9UKS7, whole entry: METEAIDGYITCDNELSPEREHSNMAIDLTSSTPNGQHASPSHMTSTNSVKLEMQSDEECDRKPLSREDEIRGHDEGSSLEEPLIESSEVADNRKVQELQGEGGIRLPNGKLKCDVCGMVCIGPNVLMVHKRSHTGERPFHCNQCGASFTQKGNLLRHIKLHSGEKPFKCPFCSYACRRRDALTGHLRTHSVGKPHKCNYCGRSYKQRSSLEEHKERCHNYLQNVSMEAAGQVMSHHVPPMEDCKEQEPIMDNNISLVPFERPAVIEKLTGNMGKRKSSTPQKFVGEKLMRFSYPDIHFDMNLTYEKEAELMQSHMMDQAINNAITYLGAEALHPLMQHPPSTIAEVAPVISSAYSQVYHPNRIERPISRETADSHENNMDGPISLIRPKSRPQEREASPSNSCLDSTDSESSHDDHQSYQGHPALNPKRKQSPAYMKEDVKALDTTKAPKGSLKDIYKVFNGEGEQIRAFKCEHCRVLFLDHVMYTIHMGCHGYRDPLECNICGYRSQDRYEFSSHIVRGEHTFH
UniProt Q9UKT9, whole entry: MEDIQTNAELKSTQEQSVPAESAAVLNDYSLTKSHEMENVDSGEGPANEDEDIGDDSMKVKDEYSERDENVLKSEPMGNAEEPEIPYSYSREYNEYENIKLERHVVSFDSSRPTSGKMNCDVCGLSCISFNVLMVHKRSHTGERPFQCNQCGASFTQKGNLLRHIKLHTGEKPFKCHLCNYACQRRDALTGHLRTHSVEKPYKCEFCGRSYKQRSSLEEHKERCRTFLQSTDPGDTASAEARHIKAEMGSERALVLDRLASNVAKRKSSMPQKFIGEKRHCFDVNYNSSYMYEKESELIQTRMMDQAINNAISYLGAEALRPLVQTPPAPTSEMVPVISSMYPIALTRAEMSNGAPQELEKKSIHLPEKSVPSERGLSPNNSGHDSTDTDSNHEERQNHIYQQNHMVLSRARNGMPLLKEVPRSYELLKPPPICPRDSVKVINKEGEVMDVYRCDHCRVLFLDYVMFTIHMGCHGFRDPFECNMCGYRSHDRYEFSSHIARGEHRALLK
UniProt P30291, whole entry: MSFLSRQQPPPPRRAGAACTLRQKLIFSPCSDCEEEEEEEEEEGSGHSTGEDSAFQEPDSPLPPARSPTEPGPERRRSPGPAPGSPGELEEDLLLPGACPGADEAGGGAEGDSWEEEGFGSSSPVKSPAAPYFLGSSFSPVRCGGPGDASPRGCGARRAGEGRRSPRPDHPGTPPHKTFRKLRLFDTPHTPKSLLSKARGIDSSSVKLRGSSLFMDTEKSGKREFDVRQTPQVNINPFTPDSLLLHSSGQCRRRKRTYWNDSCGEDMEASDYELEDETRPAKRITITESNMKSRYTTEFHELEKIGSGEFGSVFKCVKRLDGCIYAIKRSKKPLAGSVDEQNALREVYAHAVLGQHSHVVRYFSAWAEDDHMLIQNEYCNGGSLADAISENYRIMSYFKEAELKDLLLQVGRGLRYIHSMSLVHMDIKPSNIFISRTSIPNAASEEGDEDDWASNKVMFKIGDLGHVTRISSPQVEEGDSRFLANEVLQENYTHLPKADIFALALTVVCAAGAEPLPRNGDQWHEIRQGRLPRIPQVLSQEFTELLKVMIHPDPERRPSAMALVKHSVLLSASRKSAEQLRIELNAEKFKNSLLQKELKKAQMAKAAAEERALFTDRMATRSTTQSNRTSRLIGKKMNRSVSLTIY
UniProt Q16531, whole entry partner: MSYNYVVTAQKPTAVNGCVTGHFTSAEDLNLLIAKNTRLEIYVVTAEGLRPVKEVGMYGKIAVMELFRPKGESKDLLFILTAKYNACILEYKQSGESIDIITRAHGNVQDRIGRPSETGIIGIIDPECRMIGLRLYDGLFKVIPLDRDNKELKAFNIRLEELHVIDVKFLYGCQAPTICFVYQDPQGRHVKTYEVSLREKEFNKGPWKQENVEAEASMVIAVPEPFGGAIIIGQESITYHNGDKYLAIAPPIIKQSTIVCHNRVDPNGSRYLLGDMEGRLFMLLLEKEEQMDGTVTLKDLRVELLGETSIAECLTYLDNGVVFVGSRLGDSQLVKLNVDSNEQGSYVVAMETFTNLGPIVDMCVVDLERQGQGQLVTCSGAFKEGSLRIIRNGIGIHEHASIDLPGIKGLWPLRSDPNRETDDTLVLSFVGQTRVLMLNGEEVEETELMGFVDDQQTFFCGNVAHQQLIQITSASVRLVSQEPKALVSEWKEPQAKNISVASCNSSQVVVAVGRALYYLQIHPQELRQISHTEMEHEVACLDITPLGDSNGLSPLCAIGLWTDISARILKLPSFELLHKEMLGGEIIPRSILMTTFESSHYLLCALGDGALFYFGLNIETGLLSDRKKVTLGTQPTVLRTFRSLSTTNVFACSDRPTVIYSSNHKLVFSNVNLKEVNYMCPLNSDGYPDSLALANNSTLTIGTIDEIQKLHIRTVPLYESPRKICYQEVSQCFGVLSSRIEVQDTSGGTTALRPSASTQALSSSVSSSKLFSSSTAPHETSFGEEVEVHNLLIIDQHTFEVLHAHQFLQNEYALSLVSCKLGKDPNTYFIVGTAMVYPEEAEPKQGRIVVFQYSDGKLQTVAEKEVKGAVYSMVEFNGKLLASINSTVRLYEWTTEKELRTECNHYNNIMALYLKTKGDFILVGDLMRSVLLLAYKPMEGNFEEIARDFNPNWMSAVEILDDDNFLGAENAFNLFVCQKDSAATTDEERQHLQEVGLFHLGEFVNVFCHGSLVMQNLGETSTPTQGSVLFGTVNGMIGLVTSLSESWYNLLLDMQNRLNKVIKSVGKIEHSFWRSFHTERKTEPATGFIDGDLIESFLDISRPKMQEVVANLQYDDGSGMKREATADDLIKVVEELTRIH

System: Human multiple myeloma cell (MM.1S)
Experiment: Tumor cell proliferation inhibition (cell viability assay)
Settings: MM.1S cells; 10 nM; 96 hours

| Structure (SMILES) | Inhibition Rate at 10 nM (%) |
| --- | --- |
| O=C1CCC(N2Cc3c(CN4CCC(N5CCC(c6noc7cc(F)ccc67)CC5)C(F)(F)C4)cccc3C2=O)C(=O)N1 (centres unmarked) | 1b5 (32% ≤ 1b5 < 42%) |
| O=C1CCC(N2Cc3cccc(CN4CCC(N5CCN(c6noc7cc(F)ccc67)CC5)CC4)c3C2=O)C(=O)N1 (centres unmarked) | 1b10 (80% ≤ 1b10 ≤ 100%) |

Same assay, conditions: MM.1S cells; 500 nM; 96 hours

| Structure (SMILES) | Inhibition Rate at 500 nM (%) |
| --- | --- |
| O=C1CCC(N2Cc3c(CN4CCC(N5CCC(c6noc7cc(F)ccc67)CC5)C(F)(F)C4)cccc3C2=O)C(=O)N1 (centres unmarked) | 1b8 (60% ≤ 1b8 < 70%) |
| O=C1CCC(N2Cc3cccc(CN4CCC(N5CCN(c6noc7cc(F)ccc67)CC5)CC4)c3C2=O)C(=O)N1 (centres unmarked) | 1b10 (80% ≤ 1b10 ≤ 100%) |

System: Human myeloid monocytic leukemia cell (MV-4-11)
Experiment: as above
Settings: MV-4-11 cells; 10 nM; 96 hours

| Structure (SMILES) | Inhibition Rate at 10 nM (%) |
| --- | --- |
| O=C1CCC(N2Cc3c(CN4CCC(N5CCC(c6noc7cc(F)ccc67)CC5)C(F)(F)C4)cccc3C2=O)C(=O)N1 (centres unmarked) | 1a4 (20% ≤ 1a4 < 30%) |

Same assay, conditions: MV-4-11 cells; 500 nM; 96 hours

| Structure (SMILES) | Inhibition Rate at 500 nM (%) |
| --- | --- |
| O=C1CCC(N2Cc3c(CN4CCC(N5CCC(c6noc7cc(F)ccc67)CC5)C(F)(F)C4)cccc3C2=O)C(=O)N1 (centres unmarked) | 1a8 (60% ≤ 1a8 < 70%) |

System: IL-2
Experiment: Inflammatory cytokine release from PBMCs induced by PHA (flow cytometry CBA)
Settings: 0.1 µM; PBMCs, PHA 1 µg/mL, 24 h

| Structure (SMILES) | Inhibition Rate (%) IL-2 |
| --- | --- |
| O=C1CCN(N2Cc3cc(CN4CCC(N5CCC(c6noc7cc(F)ccc67)CC5)C(F)(F)C4)ccc3C2=O)C(=O)N1 (centres unmarked) | IV10 (50% < IV 10 ≤ 60%) |
| O=C1CCN(N2C(=O)c3ccc(CN4CCC(N5CC=C(c6cccc(Cl)c6Cl)CC5)C(F)(F)C4)cc3C2=O)C(=O)N1 (centres unmarked) | IV10 (50% < IV 10 ≤ 60%) |
| O=C1CCC(N2Cc3cccc(CN4CCC(N5CCN(c6noc7cc(F)ccc67)CC5)CC4)c3C2=O)C(=O)N1 (centres unmarked) | IV9 (40% < IV9 ≤ 50%) |
| O=C1CCC(N2Cc3ccc(C(=O)N4CCC(N5CCN(c6cccc(Cl)c6Cl)CC5)C(F)(F)C4)cc3C2=O)C(=O)N1 (centres unmarked) | IV7 (20% < IV7 ≤ 30%) |
| O=C1CCN(N2C(=O)c3ccc(CN4CCC(N5CCN(C(c6ccccc6)c6ccccc6)CC5)CC4)cc3C2=O)C(=O)N1 | IV11 (60% < IV11 ≤ 70%) |
| O=C1CCC(N2Cc3ccc(CN4CCC(N5CCN(C(c6ccccc6)c6ccccc6)CC5)C(F)(F)C4)cc3C2=O)C(=O)N1 (centres unmarked) | IV10 (50% < IV 10 ≤ 60%) |

Same assay, conditions: 1 µM; PBMCs, PHA 1 µg/mL, 24 h

| Structure (SMILES) | Inhibition Rate (%) IL-2 |
| --- | --- |
| O=C1CCN(N2Cc3cc(CN4CCC(N5CCC(c6noc7cc(F)ccc67)CC5)C(F)(F)C4)ccc3C2=O)C(=O)N1 (centres unmarked) | IV9 (40% < IV9 ≤ 50%) |
| O=C1CCC(N2Cc3cccc(CN4CCC(N5CCN(c6noc7cc(F)ccc67)CC5)CC4)c3C2=O)C(=O)N1 (centres unmarked) | IV8 (30% < IV8 ≤ 40%) |
| O=C1CCC(N2Cc3ccc(C(=O)N4CCC(N5CCN(c6cccc(Cl)c6Cl)CC5)C(F)(F)C4)cc3C2=O)C(=O)N1 (centres unmarked) | IV9 (40% < IV9 ≤ 50%) |
| O=C1CCC(N2Cc3ccc(CN4CCC(N5CCN(C(c6ccccc6)c6ccccc6)CC5)C(F)(F)C4)cc3C2=O)C(=O)N1 (centres unmarked) | IV9 (40% < IV9 ≤ 50%) |

System: TNF-α
Experiment: as above
Settings: 0.1 µM, PHA 1 µg/mL, 24 h

| Structure (SMILES) | Inhibition Rate (%) TNF-α |
| --- | --- |
| O=C1CCN(N2Cc3cc(CN4CCC(N5CCC(c6noc7cc(F)ccc67)CC5)C(F)(F)C4)ccc3C2=O)C(=O)N1 (centres unmarked) | IV8 (30% < IV8 ≤ 40%) |
| O=C1CCN(N2C(=O)c3ccc(CN4CCC(N5CC=C(c6cccc(Cl)c6Cl)CC5)C(F)(F)C4)cc3C2=O)C(=O)N1 (centres unmarked) | IV10 (50% < IV 10 ≤ 60%) |
| O=C1CCC(N2Cc3ccc(C(=O)N4CCC(N5CCN(c6cccc(Cl)c6Cl)CC5)C(F)(F)C4)cc3C2=O)C(=O)N1 (centres unmarked) | IV7 (20% < IV7 ≤ 30%) |
| O=C1CCN(N2C(=O)c3ccc(CN4CCC(N5CCN(C(c6ccccc6)c6ccccc6)CC5)CC4)cc3C2=O)C(=O)N1 | IV10 (50% < IV 10 ≤ 60%) |
| O=C1CCC(N2Cc3ccc(CN4CCC(N5CCN(C(c6ccccc6)c6ccccc6)CC5)C(F)(F)C4)cc3C2=O)C(=O)N1 (centres unmarked) | IV9 (40% < IV9 ≤ 50%) |

Same assay, conditions: 1 µM, PHA 1 µg/mL, 24 h

| Structure (SMILES) | Inhibition Rate (%) TNF-α |
| --- | --- |
| O=C1CCN(N2C(=O)c3ccc(CN4CCC(N5CC=C(c6cccc(Cl)c6Cl)CC5)C(F)(F)C4)cc3C2=O)C(=O)N1 (centres unmarked) | IV9 (40% < IV9 ≤ 50%) |
| O=C1CCC(N2Cc3ccc(C(=O)N4CCC(N5CCN(c6cccc(Cl)c6Cl)CC5)C(F)(F)C4)cc3C2=O)C(=O)N1 (centres unmarked) | IV9 (40% < IV9 ≤ 50%) |
| O=C1CCN(N2C(=O)c3ccc(CN4CCC(N5CCN(C(c6ccccc6)c6ccccc6)CC5)CC4)cc3C2=O)C(=O)N1 | IV7 (20% < IV7 ≤ 30%) |
| O=C1CCC(N2Cc3ccc(CN4CCC(N5CCN(C(c6ccccc6)c6ccccc6)CC5)C(F)(F)C4)cc3C2=O)C(=O)N1 (centres unmarked) | IV9 (40% < IV9 ≤ 50%) |

Target: CRBN (Homo sapiens, UniProt Q96SW2)
Experiment: CRBN binding affinity by HTRF (CEREBLON BINDING kit)
Settings: CRBN binding, HTRF, compound at 0.5 µM

| Structure (SMILES) | Inhibition Rate at 0.5 µM (%) |
| --- | --- |
| O=C1CCC(N2Cc3ccc(C(=O)N4CCC(N5CCN(c6cccc(Cl)c6Cl)CC5)C(F)(F)C4)cc3C2=O)C(=O)N1 (centres unmarked) | a3 (30% < a3 ≤ 40%) |
| O=C1CCC(N2Cc3ccc(CN4CCC(N5CCN(C(c6ccccc6)c6ccccc6)CC5)C(F)(F)C4)cc3C2=O)C(=O)N1 (centres unmarked) | a2 (20% < a2 ≤ 30%) |

Same assay, conditions: CRBN binding, HTRF, compound at 2 µM

| Structure (SMILES) | Inhibition Rate at 2 µM (%) |
| --- | --- |
| O=C1CCC(N2Cc3ccc(C(=O)N4CCC(N5CCN(c6cccc(Cl)c6Cl)CC5)C(F)(F)C4)cc3C2=O)C(=O)N1 (centres unmarked) | a6 (60% < a6 ≤ 70%) |
| O=C1CCC(N2Cc3ccc(CN4CCC(N5CCN(C(c6ccccc6)c6ccccc6)CC5)C(F)(F)C4)cc3C2=O)C(=O)N1 (centres unmarked) | a5 (53% < a5 ≤ 60%) |

Target: CK1α (Homo sapiens, UniProt P48729+Q96SW2)
Experiment: Western blot assay of substrate protein degradation in hPBMCs
Settings: 24 hours treatment, compounds at 50 nM and 500 nM (concentration behind the class not stated)

| Structure (SMILES) | substrate protein remaining % (CK1a) |
| --- | --- |
| O=C1CCN(N2Cc3cc(CN4CCC(N5CCC(c6noc7cc(F)ccc67)CC5)C(F)(F)C4)ccc3C2=O)C(=O)N1 (centres unmarked) | B (80%< substrate protein remaining %≤ 100%) |
| O=C1CCC(N2Cc3c(CN4CCC(N5CCC(c6noc7cc(F)ccc67)CC5)C(F)(F)C4)cccc3C2=O)C(=O)N1 (centres unmarked) | A (0% ≤ substrate protein remaining % ≤ 80%) |
| O=C1CCN(N2C(=O)c3ccc(CN4CCC(N5CC=C(c6cccc(Cl)c6Cl)CC5)C(F)(F)C4)cc3C2=O)C(=O)N1 (centres unmarked) | B (80%< substrate protein remaining %≤ 100%) |

Target: GSPT1 (Homo sapiens, UniProt P15170+Q96SW2)
Experiment: as above
Settings: 24 hours treatment, compounds at 50 nM and 500 nM (concentration behind the class not stated)

| Structure (SMILES) | substrate protein remaining % (GSPT1) |
| --- | --- |
| O=C1CCN(N2Cc3cc(CN4CCC(N5CCC(c6noc7cc(F)ccc67)CC5)C(F)(F)C4)ccc3C2=O)C(=O)N1 (centres unmarked) | A (0% ≤ substrate protein remaining % ≤ 80%) |
| O=C1CCC(N2Cc3c(CN4CCC(N5CCC(c6noc7cc(F)ccc67)CC5)C(F)(F)C4)cccc3C2=O)C(=O)N1 (centres unmarked) | A (0% ≤ substrate protein remaining % ≤ 80%) |
| O=C1CCN(N2C(=O)c3ccc(CN4CCC(N5CC=C(c6cccc(Cl)c6Cl)CC5)C(F)(F)C4)cc3C2=O)C(=O)N1 (centres unmarked) | A (0% ≤ substrate protein remaining % ≤ 80%) |

Target: IKZF1 (Homo sapiens, UniProt Q13422+Q96SW2)
Experiment: as above
Settings: 24 hours treatment, compounds at 50 nM and 500 nM (concentration behind the class not stated)

| Structure (SMILES) | substrate protein remaining % (IKZF 1) |
| --- | --- |
| O=C1CCN(N2Cc3cc(CN4CCC(N5CCC(c6noc7cc(F)ccc67)CC5)C(F)(F)C4)ccc3C2=O)C(=O)N1 (centres unmarked) | A (0% ≤ substrate protein remaining % ≤ 80%) |
| O=C1CCC(N2Cc3c(CN4CCC(N5CCC(c6noc7cc(F)ccc67)CC5)C(F)(F)C4)cccc3C2=O)C(=O)N1 (centres unmarked) | A (0% ≤ substrate protein remaining % ≤ 80%) |
| O=C1CCN(N2C(=O)c3ccc(CN4CCC(N5CC=C(c6cccc(Cl)c6Cl)CC5)C(F)(F)C4)cc3C2=O)C(=O)N1 (centres unmarked) | B (80%< substrate protein remaining %≤ 100%) |

Target: IKZF2 (Homo sapiens, UniProt Q96SW2+Q9UKS7)
Experiment: as above
Settings: 24 hours treatment, compounds at 50 nM and 500 nM (concentration behind the class not stated)

| Structure (SMILES) | substrate protein remaining % (IKZF2) |
| --- | --- |
| O=C1CCN(N2Cc3cc(CN4CCC(N5CCC(c6noc7cc(F)ccc67)CC5)C(F)(F)C4)ccc3C2=O)C(=O)N1 (centres unmarked) | B (80%< substrate protein remaining %≤ 100%) |
| O=C1CCC(N2Cc3c(CN4CCC(N5CCC(c6noc7cc(F)ccc67)CC5)C(F)(F)C4)cccc3C2=O)C(=O)N1 (centres unmarked) | A (0% ≤ substrate protein remaining % ≤ 80%) |
| O=C1CCN(N2C(=O)c3ccc(CN4CCC(N5CC=C(c6cccc(Cl)c6Cl)CC5)C(F)(F)C4)cc3C2=O)C(=O)N1 (centres unmarked) | B (80%< substrate protein remaining %≤ 100%) |

Target: IKZF3 (Homo sapiens, UniProt Q96SW2+Q9UKT9)
Experiment: as above
Settings: 24 hours treatment, compounds at 50 nM and 500 nM (concentration behind the class not stated)

| Structure (SMILES) | substrate protein remaining % (IKZF3) |
| --- | --- |
| O=C1CCN(N2Cc3cc(CN4CCC(N5CCC(c6noc7cc(F)ccc67)CC5)C(F)(F)C4)ccc3C2=O)C(=O)N1 (centres unmarked) | B (80%< substrate protein remaining %≤ 100%) |
| O=C1CCC(N2Cc3c(CN4CCC(N5CCC(c6noc7cc(F)ccc67)CC5)C(F)(F)C4)cccc3C2=O)C(=O)N1 (centres unmarked) | A (0% ≤ substrate protein remaining % ≤ 80%) |
| O=C1CCN(N2C(=O)c3ccc(CN4CCC(N5CC=C(c6cccc(Cl)c6Cl)CC5)C(F)(F)C4)cc3C2=O)C(=O)N1 (centres unmarked) | B (80%< substrate protein remaining %≤ 100%) |

Target: WEE1 (Homo sapiens, UniProt P30291+Q96SW2)
Experiment: as above
Settings: 24 hours treatment, compounds at 50 nM and 500 nM (concentration behind the class not stated)

| Structure (SMILES) | substrate protein remaining % (WEE1) |
| --- | --- |
| O=C1CCN(N2Cc3cc(CN4CCC(N5CCC(c6noc7cc(F)ccc67)CC5)C(F)(F)C4)ccc3C2=O)C(=O)N1 (centres unmarked) | A (0% ≤ substrate protein remaining % ≤ 80%) |
| O=C1CCC(N2Cc3c(CN4CCC(N5CCC(c6noc7cc(F)ccc67)CC5)C(F)(F)C4)cccc3C2=O)C(=O)N1 (centres unmarked) | A (0% ≤ substrate protein remaining % ≤ 80%) |
| O=C1CCN(N2C(=O)c3ccc(CN4CCC(N5CC=C(c6cccc(Cl)c6Cl)CC5)C(F)(F)C4)cc3C2=O)C(=O)N1 (centres unmarked) | B (80%< substrate protein remaining %≤ 100%) |
